Two compounds from ChEMBL document CHEMBL3763052, “Novel N-acyl-carbazole derivatives as 5-HT7R antagonists” (Eur J Med Chem, 2016) can be followed below.

Amino acid sequences for entries named in this document (tags omitted).
UniProt P34969, whole entry: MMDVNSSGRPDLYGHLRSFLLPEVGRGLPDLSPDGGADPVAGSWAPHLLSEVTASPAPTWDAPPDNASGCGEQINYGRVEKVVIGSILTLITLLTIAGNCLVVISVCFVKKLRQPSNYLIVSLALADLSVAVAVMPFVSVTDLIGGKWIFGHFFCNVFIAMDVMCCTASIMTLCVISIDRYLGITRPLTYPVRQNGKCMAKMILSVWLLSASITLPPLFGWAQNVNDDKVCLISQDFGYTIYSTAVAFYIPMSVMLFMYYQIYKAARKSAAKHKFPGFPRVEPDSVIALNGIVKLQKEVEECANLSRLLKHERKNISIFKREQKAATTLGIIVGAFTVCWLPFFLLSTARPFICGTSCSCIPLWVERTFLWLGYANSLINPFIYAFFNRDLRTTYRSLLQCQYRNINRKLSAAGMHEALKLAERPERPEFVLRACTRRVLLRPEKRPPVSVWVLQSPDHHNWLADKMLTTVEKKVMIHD

The target of this assay is 5-hydroxytryptamine receptor 7 (Homo sapiens, UniProt P34969). The assay is described as follows: Displacement of [3H]LSD from 5-HT7 receptor (unknown origin) expressed in CHO-K1 cells by liquid scintillation counting method. It is filed as cell-based. For orientation: Displacement assays read how much labelled ligand stays bound in the presence of the test substance.

As for `CC1CCN(CCCCCC(=O)n2c3ccccc3c3ccccc32)CC1`, the Ki (commonly the equilibrium dissociation constant of an inhibitor or competing ligand from its target) turned out to be 364 nM. That is a sub-micromolar value.
`CN(CCCCCC(=O)n1c2ccccc2c2ccccc21)Cc1ccccc1` gave a Ki of 604 nM.
